Read-outs that look alike come from different tables or passages of the source.
Legend:
[1] = target: T1, ferroportin (Homo sapiens, UniProt Q9NP59); assay: FPN activity assay: internalization of ferroportin-GFP in stably transfected HEK293 cells; assay type: cell-based; parameters: expressed in transfected cells; details: read-out: IC50: FPN
T1 sequence (Q9NP59 1-571): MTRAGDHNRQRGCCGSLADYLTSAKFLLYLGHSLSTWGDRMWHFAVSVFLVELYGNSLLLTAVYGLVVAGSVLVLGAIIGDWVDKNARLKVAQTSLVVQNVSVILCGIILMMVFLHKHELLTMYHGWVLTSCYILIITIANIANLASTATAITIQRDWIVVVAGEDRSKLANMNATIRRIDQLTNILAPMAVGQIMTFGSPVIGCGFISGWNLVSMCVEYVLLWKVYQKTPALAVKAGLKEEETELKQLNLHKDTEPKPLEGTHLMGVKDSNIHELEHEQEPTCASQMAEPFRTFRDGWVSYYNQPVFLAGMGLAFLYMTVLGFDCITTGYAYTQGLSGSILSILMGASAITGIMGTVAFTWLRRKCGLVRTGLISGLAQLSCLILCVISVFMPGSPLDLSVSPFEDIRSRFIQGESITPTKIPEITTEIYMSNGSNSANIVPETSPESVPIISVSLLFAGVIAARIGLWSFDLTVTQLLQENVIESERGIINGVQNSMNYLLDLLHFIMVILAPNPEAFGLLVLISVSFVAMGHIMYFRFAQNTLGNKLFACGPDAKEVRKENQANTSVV
Procedure: Peptide analogues were tested in vitro for induction of internalization of the human ferroportin protein. Following internalization, the ferroporin protein is degraded. The assay used (FPN activity assay) measures a decrease in fluorescence of the receptor. The cDNA encoding the human ferroportin (SLC40A1) was cloned from a cDNA clone from Origene (NM_014585). The DNA encoding the ferroportin was amplified by PCR using primers also encoding terminal restriction sites for subcloning, but without the termination codon. The ferroportin receptor was subcloned into a mammalian GFP expression vector containing a neomycin (G418) resistance marker in such that the reading frame of the ferroportin was fused in frame with the GFP protein. The fidelity of the DNA encoding the protein was confirmed by DNA sequencing. HEK293 cells were used for transfection of the ferroportin-GFP receptor expression plasmid. The cells were grown according to standard protocol in growth medium and transfected with the plasmids using Lipofectamine (manufacturer's protocol, Invitrogen). The cells stably expressing ferroportin-GFP were selected using G418 in the growth medium (in that only cells that have taken up and incorporated the cDNA expression plasmid survive) and sorted several times on a Cytomation MoFloTM cell sorter to obtain the GFP-positive cells (488 nm/530 nm). The cells were propagated and frozen in aliquots. […] Compound was added to desired final concentration for at least 18 hours in the incubator. Following incubation, the remaining GFP-fluorescence was determined either by whole cell GFP fluorescence (Envision plate reader, 485/535 filter pair), or by Beckman Coulter QuantaTM flow cytometer (express as Geometric mean of fluorescence intensity at 485 nm/525 nm). Compound was added to desired final concentration for at least 18 hours but no more than 24 hours in the incubator. In certain experiments, reference compounds included native Hepcidin, Mini-Hepcidin, and RT-Mini-Hepcidin, which is an analog of mini-hepcidin. The “RI” in RI-Mini-Hepcidin refers to Retro Inverse. A retro inverse peptide is a peptide with a reversed sequence in all D amino acids. An example is that […] becomes […]. The EC50 of these reference compounds for ferroportin internalization/degradation was determined according to the FPN activity assay described above. These peptides served as control standards.

[2] = target: T1, ferroportin; assay: T47D cell-based ferroportin internalization assay in presence of 0.5% mouse serum albumin (MSA); parameters: a human breast carcinoma adherent cell line which endogenously expresses ferroportin; host or cells: T47D
Procedure: The potency of the peptides in causing ferroportin internalization was evaluated in a T47D cell-based assay. […] In this internalization assay, the potency of the test peptides was evaluated in the presence of serum albumin, which is the main protein component in the blood. T47D cells were maintained in RPMI media (containing required amount of fetal bovine serum) and regularly sub-cultured. In preparation for the assay, the cells were seeded in 96-well plates at a density of 80-100 k cells per well in 100 ul volume and allowed to rest overnight. On the next day, test peptides were first prepared in dilution series (10-point series, starting concentration of ˜5 μM, typically 3-4×fold dilution steps), all with 0.5% mouse serum albumin (MSA purified from mouse serum; Sigma, A3139). The test peptide dilution series were allowed to incubate at room temperature for 30 min. Then the media was aspirated from the 96-well cell plate and test peptide dilution series were added. After 1 hr incubation, the media with test peptides was aspirated out and AF647-conjugated detection peptide was added at fixed concentration of 200 nM. The AF647-conjugated detection peptide was previously verified to bind to ferroportin and cause its internalization. The cells were washed again after a 2 hr incubation in preparation for flow cytometry analysis. The Median Fluorescence Intensity (MFI) of the AF647-positive population was measured (after removing dead cells and non-singlets from the analysis). The MFI values were used to generate a dose-response curve and obtain IC50 potencies for the test peptides. The IC50 potencies were calculated by using 4-parameter non-linear fitting function in Graphpad Prism, and the results are provided in Table 1C.

[3] = Table 1D, FPN internalization assay
[4] = Table 1D, T47D internalization, 0.5% mouse serum albumin, read-out: IC50: T47D MSA
[5] = Table 1C, FPN internalization assay
[6] = Table 1C, T47D internalization, 0.5% mouse serum albumin, read-out: IC50: T47D MSA

## CCCCCCCCCCCCCCCC(=O)N[C@@H](CCC(=O)NCC[N+](C)(C)CC(=O)NCCCC[C@H]1C(=O)N[C@@H](Cc2ccccc2)CC(=O)N[C@H](CCCCN)C(=O)N[C@H](C(N)=O)CSSC[C@H](NC(=O)[C@@H]2CCCN2C(=O)[C@@H](NC(=O)[C@H](Cc2c[nH]cn2)NC(=O)[C@@H](NC(=O)[C@H](CCC(=O)O)NC(=O)CC(C)C)[C@@H](C)O)C(c2ccccc2)c2ccccc2)C(=O)N[C@@H]([C@@H](C)CC)C(=O)N1C)C(=O)O [compound 93]
[1]; [3]
  DC50: 1 to 30 nM
[2]; [4]
  IC50: 1 to 10 nM

## CCCCCCCCCCCCCCCC(=O)NC(CCC(=O)O)CCC(=O)NCC[N+](C)(C)CC(=O)NCCCC[C@H]1C(=O)N[C@@H](Cc2ccccc2)CC(=O)N[C@H](CCCCN)C(=O)N[C@H](C(N)=O)CSSC[C@H](NC(=O)[C@@H]2CCCN2C(=O)[C@@H](NC(=O)[C@H](Cc2c[nH]cn2)NC(=O)[C@@H](NC(=O)[C@H](CCC(=O)O)NC(=O)CC(C)C)[C@@H](C)O)C(c2ccccc2)c2ccccc2)C(=O)N[C@@H]([C@@H](C)CC)C(=O)N1C (stereo partly shown) [compound 91]
[1]; [3]
  DC50: 1 to 30 nM
[2]; [4]
  IC50: 1 to 10 nM

## CCCCCCCCCCCCCCCC(=O)NC(CC(=O)O)CC(=O)NCC[N+](C)(C)CC(=O)NCCCC[C@H]1C(=O)N[C@@H](Cc2ccccc2)CC(=O)N[C@H](CCCCN)C(=O)N[C@H](C(N)=O)CSSC[C@H](NC(=O)[C@@H]2CCCN2C(=O)[C@@H](NC(=O)[C@H](Cc2c[nH]cn2)NC(=O)[C@@H](NC(=O)[C@H](CCC(=O)O)NC(=O)CC(C)C)[C@@H](C)O)C(c2ccccc2)c2ccccc2)C(=O)N[C@@H]([C@@H](C)CC)C(=O)N1C (stereo partly shown) [compound 89]
[1]; [3]
  DC50: 1 to 30 nM
[2]; [4]
  IC50: 1 to 10 nM

## CC[C@H](C)[C@@H]1NC(=O)[C@@H](NC(=O)[C@@H]2CCCN2C(=O)[C@@H](NC(=O)[C@H](Cc2c[nH]cn2)NC(=O)[C@@H](NC(=O)[C@H](CCC(=O)O)NC(=O)CC(C)C)[C@@H](C)O)C(c2ccccc2)c2ccccc2)CSSC[C@@H](C(N)=O)NC(=O)[C@@H](CCCCN)NC(=O)[C@H](CCCCNC(=O)[C@H](CN)NC(=O)CCCc2ccc(I)cc2)NC(=O)[C@H](C(c2ccccc2)c2ccccc2)NC(=O)[C@@H](CCCCN)NC1=O [compound 83]
[1]; [3]
  DC50: 30 to 100 nM
[2]; [4]
  IC50: 1 to 10 nM

## CC[C@H](C)[C@@H]1NC(=O)[C@@H]2CSCc3cc(cc(c3)CSC[C@H](NC(=O)[C@H](CCC(=O)O)NC(=O)CC(C)C)C(=O)N[C@@H](Cc3c[nH]cn3)C(=O)N[C@@H](C(c3ccccc3)c3ccccc3)C(=O)N3CCC[C@H]3C(=O)N2)CSC[C@@H](C(N)=O)NC(=O)[C@@H](CCCCN)NC(=O)[C@H](CCCCNC(=O)CCCc2ccc(I)cc2)N(C)C(=O)[C@H](C(c2ccccc2)c2ccccc2)NC(=O)[C@@H](CCCCN)NC1=O [compound 81]
[1]
  DC50: 100 to 500 nM
[2]
  IC50: > 500 nM

## CC[C@H](C)[C@@H]1NC(=O)[C@@H](NC(=O)[C@@H]2CCCN2C(=O)[C@@H](NC(=O)[C@H](Cc2c[nH]cn2)NC(=O)[C@@H](NC(=O)[C@H](CCC(=O)OC)NC(=O)CC(C)C)[C@@H](C)O)C(c2ccccc2)c2ccccc2)CSSC[C@@H](C(N)=O)NC(=O)[C@@H](CCCCN)NC(=O)[C@H](C(c2ccccc2)c2ccccc2)NC(=O)[C@H](CCCCNC(=O)CCCCCNC(=O)[C@H](CN)NC(=O)CCCCCCCCCCCCCCCCC(=O)O)N(C)C1=O [compound 35]
[1]; [5]
  DC50: 1 to 30 nM
[2]; [6]
  IC50: 11 to 100 nM

## CC[C@H](C)[C@@H]1NC(=O)[C@@H](NC(=O)[C@@H]2CCCN2C(=O)[C@@H](NC(=O)[C@H](Cc2c[nH]cn2)NC(=O)[C@@H](NC(=O)[C@H](CCC(=O)O)NC(=O)CC(C)C)[C@@H](C)O)C(c2ccccc2)c2ccccc2)CSSC(C)(C)[C@@H](C(N)=O)NC(=O)[C@@H](CCCCNC(=O)CCOCCOCCOCCOCCOCCOCCOCCOCCOCCOCCOCCOC)NC(=O)C[C@H](Cc2ccccc2)NC(=O)[C@H](CCCCNC(=O)CCOCCOCCOCCOCCOCCOCCOCCOCCOCCOCCOCCOCCNC(=O)CCCCCCCCCCCCCCCCC(=O)O)NC1=O [compound 63]
[1]; [5]
  DC50: 30 to 100 nM
[2]; [6]
  IC50: 101 to 500 nM

## CC[C@H](C)[C@@H]1NC(=O)[C@@H](NC(=O)[C@@H]2CCCN2C(=O)[C@@H](NC(=O)[C@H](Cc2c[nH]cn2)NC(=O)[C@@H](NC(=O)[C@H](CCC(=O)O)NC(=O)CC(C)C)[C@@H](C)O)C(c2ccccc2)c2ccccc2)CSSC[C@@H](C(N)=O)NC(=O)[C@@H](CCCCN)NC(=O)[C@H](CCCCNC(=O)[C@H](CCN)NC(=O)CCCCCCCCCCC(=O)O)NC(=O)C[C@H](Cc2ccccc2)NC(=O)[C@@H](CCCCN)NC1=O [compound 96]
[1]; [3]
  DC50: 1 to 30 nM
[2]; [4]
  IC50: 11 to 100 nM

— patent US20250170216A1 (Protagonist Therapeutics, Inc., priority 2022, published 2025)
